Results taken from US20240383869A1, “ARYLACETYL INHIBITORS OF TG2 AND USES THEREOF” (UNIVERSITY OF OTTAWA, priority 2021, published 2024).

Experiments:
hTG2 = target: T1, hTG2 (Homo sapiens, UniProt P21980); experiment: biochemical
T1 sequence (P21980 1-687): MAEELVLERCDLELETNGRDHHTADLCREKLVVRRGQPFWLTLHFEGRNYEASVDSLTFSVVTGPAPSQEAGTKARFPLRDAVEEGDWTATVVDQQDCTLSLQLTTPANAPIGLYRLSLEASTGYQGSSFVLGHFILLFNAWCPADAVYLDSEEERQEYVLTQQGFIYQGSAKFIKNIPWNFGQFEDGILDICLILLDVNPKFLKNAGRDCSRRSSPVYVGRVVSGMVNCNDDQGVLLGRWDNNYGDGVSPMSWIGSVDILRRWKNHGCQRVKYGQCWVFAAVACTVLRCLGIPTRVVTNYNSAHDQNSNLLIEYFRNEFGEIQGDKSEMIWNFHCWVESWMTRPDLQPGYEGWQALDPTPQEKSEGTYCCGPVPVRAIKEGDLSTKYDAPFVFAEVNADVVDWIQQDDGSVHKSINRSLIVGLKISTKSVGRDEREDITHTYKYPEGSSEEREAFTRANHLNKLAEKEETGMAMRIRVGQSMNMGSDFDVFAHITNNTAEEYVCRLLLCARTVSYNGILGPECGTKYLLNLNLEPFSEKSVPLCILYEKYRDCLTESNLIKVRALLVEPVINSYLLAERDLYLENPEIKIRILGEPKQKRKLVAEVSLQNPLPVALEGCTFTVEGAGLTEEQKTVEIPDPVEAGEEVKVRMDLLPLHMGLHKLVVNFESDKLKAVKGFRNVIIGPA
Procedure: The ability of the compounds to inhibit TG2 transamidase activity and the kinetics of TG2 inhibition were investigated using a colorimetric activity assay, as follows:
Colorimetric transamidase activity assay. The activities of hTG1, hTG2 and hTG6 were measured via a colorimetric assay using the chromogenic substrate Cbz-Glu(γ-p-nitrophenyl ester)Gly (AL5), as described (Leblanc, A. et al., “Kinetic studies of guinea pig liver transglutaminase reveal a general-base-catalyzed deacylation mechanism.” Biochemistry 2001, 40 (28), 8335-8342). Assays were conducted at 25° C. in 50 mM MOPS buffer (pH 6.95) containing 7.5 mM CaCl2. […] The substrate AL5 was prepared in as a stock solution in DMSO such that the final concentration of this co-solvent was constant at 2.5% v/v. Stock solutions of the inhibitors were made in water ranging in concentration from 100-500 μM. The reaction was initiated with the addition of enzyme, 0.10 μM hTG1, 0.25 μM hTG2 (4.6 mU/mL) or 0.32 μM hTG6. Formation of hydrolysis product, p-nitrophenolate (pNP), was monitored at 405 nm in a polystyrene 96-well microplate using a BioTek Synergy 4 plate reader. The observed first-order rate constants of inactivation (kobs) were determined via non-linear regression fit to a mono-exponential model (Eqn 1) of absorbance versus time curves. […]

MDCK − MDR1 = experiment: MDCK-MDR1 permeability; assay type: in vitro ADME
P-gp (MDR1) = experiment: MDCK-MDR1 permeability; assay type: in vitro ADME; settings: dog, MDCK-MDR1
[1] = test system: TG2 relative to other human transglutaminases; settings: in vitro

Question: With `C=CC(=O)NCCCC[C@H](NC(=O)Cc1ccccc1F)C(=O)N1CCN(C(=O)c2cccc3ccccc23)CC1` [Inhibitor 72, (S)-N-(6-(4-(1-naphthoyl)piperazin-1-yl)-5-(2-(2-fluorophenyl)acetamido)-6-oxohexyl)acrylamide] as the molecule, how does the kinact (hTG2; fit to saturation kinetics model, 25° C., pH 6.95, 100 μM AL5) read?
Answer: The kinact was 0.00767 s⁻¹.

Question: What about the kinact/KI (hTG2; pH 6.95) of the same molecule?
Answer: Its kinact/KI is 7380 M⁻¹ s⁻¹.

Question: And the “MDCK − MDR1 Efflux Ratio” value (MDCK − MDR1)?
Answer: Its value is 61.7.

Question: What about the efflux ratio (P-gp (MDR1)) of the same molecule?
Answer: The efflux ratio was greater than 50.

Question: What about the “selectivity in reaction with TG2 relative to other human transglutaminases” value [1] of the same molecule?
Answer: The value was “excellent selectivity”.
